{
  "source": "patent US20170280728A1",
  "about": "“ANTIMICROBIAL COMPOSITIONS AND METHODS OF THEIR USE” (CMS TECHNOLOGY, INC.., priority 2014, published 2017)",
  "key": {"[1]": {"test_system": "Salmonella enterica serovar Anatum (ATCC #9270)", "assay": "Salmonella Assay (liquid sanitizer exposure, log reduction)", "assay_type": "cell-based", "settings": "fixed chlorine pH operating level of 6.0, at lower ppm"}, "[2]": {"test_system": "General Bacteria (bacterial bird rinse)", "assay": "General Bacteria Assay (Vivione RAPID-B Total Plate Count)", "assay_type": "cell-based", "settings": "at about 5 ppm"}},
  "data": [
    {"molecule": "OCl", "note": "[chlorine, sodium hypochlorite]", "values": [
      {"measurement": "antimicrobial effect (in words)", "setting": "[1]", "value": "limited antimicrobial effect"},
      {"measurement": "antibacterial effect (in words)", "setting": "[2]", "value": "negligible antibacterial effect"}
    ]}
  ]
}
